Data as given in patent publication US5021413A (priority 1988, dated 1991).

Chains of the proteins cited; added tags and fusions are not shown. Lines headed by an entry give the natural chain unless they say otherwise; changes in a name come on top. Residues count along the entry.
UniProt P41144: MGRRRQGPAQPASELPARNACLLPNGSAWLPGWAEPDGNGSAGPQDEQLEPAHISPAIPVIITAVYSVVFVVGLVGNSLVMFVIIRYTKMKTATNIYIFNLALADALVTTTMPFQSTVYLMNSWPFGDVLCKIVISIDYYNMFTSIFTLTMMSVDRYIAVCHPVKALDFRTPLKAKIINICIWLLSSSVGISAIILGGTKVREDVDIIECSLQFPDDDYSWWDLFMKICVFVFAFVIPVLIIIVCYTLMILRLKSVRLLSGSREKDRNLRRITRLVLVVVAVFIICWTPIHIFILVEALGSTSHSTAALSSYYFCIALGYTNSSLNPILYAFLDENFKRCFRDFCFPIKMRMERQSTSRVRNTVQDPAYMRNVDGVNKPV
UniProt A0ACM8Q262, 1-400: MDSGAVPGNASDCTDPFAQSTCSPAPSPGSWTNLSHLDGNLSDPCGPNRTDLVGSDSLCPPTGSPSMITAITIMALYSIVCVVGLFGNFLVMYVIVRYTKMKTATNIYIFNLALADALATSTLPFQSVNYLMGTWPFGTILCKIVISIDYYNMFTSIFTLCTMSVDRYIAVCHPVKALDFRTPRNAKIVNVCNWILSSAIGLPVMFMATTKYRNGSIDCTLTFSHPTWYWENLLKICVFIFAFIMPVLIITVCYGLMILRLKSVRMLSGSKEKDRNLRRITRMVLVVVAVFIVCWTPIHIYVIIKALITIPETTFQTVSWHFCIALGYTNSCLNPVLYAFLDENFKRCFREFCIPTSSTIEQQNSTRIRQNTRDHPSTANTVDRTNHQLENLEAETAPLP

How the values were obtained:
[1] = test system: p-phenylquinone-induced writhing in mice; assay: p-Phenylquinone-induced writhing in mice (analgesic effect); format: in vivo, mouse (male ddY mice); details: s.c.
κ-receptors = κ-receptors (Cavia porcellus, UniProt P41144); details: read-out: Binding to opioid receptors, k (IC50); 0.6 nM tritium-labelled ethylketocyclazocine, 100 nM DAGO and 10 nM DADLE, 25° C., 45 minutes, guinea pig brain membrane
μ-receptors = μ-receptors (Cavia porcellus, UniProt A0ACM8Q262); details: read-out: Binding to opioid receptors, μ (IC50); 1 nM tritium-labelled DAGO, guinea pig brain membrane

CN(C(=O)Cc1ccc(Cl)c(Cl)c1)[C@@H]1CCCC[C@H]1N1CCCC1 (relative stereo)
Analgesic effect, phenylquinone-induced writhing, ED50 ([1]; 15 min before p-phenylquinone i.p., probit method): 0.49 mg/kg
Analgesic effect, phenylquinone-induced writhing at 320 μg/kg (analgesic-effective animals/all animals) ([1]; dose of 320 μg/kg): 2/5
IC50 (κ-receptors): 9.92 nM
IC50 (μ-receptors): 636 nM
